Measured values reported in patent US12171806B2, “Therapeutic regimens and methods for lowering blood glucose and/or body weight using GLP-1R and GCGR balanced agonists” (priority 2021, dated 2024).

Assay: Phase 1 MAD study of ALT-801: adverse events (TEAEs), safety overview

Compound: CC[C@H](C)[C@H](NC(=O)[C@H](Cc1ccccc1)NC(=O)[C@H](CCC(=O)O)NC(=O)[C@@H]1CCCCNC(=O)CC[C@H](NC(=O)[C@H](CC(=O)O)NC(=O)[C@H](CC(C)C)NC(=O)[C@H](Cc2ccc(O)cc2)NC(=O)[C@H](CCCCN)NC(=O)[C@H](CO)NC(=O)[C@H](Cc2ccc(O)cc2)NC(=O)[C@H](CC(=O)O)NC(=O)[C@H](CO)NC(=O)[C@@H](NC(=O)[C@H](Cc2ccccc2)NC(=O)[C@@H](NC(=O)CNC(=O)[C@H](CCC(N)=O)NC(=O)C(C)(C)NC(=O)[C@@H](N)Cc2c[nH]cn2)[C@@H](C)O)[C@@H](C)O)C(=O)N[C@@H](CCCCNC(=O)[C@H]2O[C@@H](OCCCCCCCCCCCCCCCCCC(=O)O)[C@H](O)[C@@H](O)[C@@H]2O)C(=O)N[C@@H](C)C(=O)N[C@@H](C)C(=O)N1)C(=O)N[C@@H](CCC(N)=O)C(=O)N[C@@H](Cc1c[nH]c2ccccc12)C(=O)N[C@@H](CC(C)C)C(=O)N[C@@H](CC(C)C)C(=O)N[C@@H](CCC(N)=O)C(=O)N[C@H](C(N)=O)[C@@H](C)O [ALT-801, pemvidutide]
- TEAE Vascular disorders, maximum severity Mild, subjects n (M1 1.2 mg ALT-801 (N = 7)): 0
- TEAE Vascular disorders, maximum severity Moderate, subjects % (M1 1.2 mg ALT-801 (N = 7)): (0.0%)
- TEAE Vascular disorders, maximum severity Moderate, subjects n (M1 1.2 mg ALT-801 (N = 7)): 0
- TEAE Vascular disorders, maximum severity PLT, subjects % (M1 1.2 mg ALT-801 (N = 7)): (0.0%)
- TEAE Vascular disorders, maximum severity PLT, subjects n (M1 1.2 mg ALT-801 (N = 7)): 0
- TEAE Vascular disorders, maximum severity Severe, subjects % (M1 1.2 mg ALT-801 (N = 7)): (0.0%)
- TEAE Vascular disorders, maximum severity Severe, subjects n (M1 1.2 mg ALT-801 (N = 7)): 0
- Any TEAE; Mild; % (M2 1.8 mg (N = 9)): (55.6%)
- Any TEAE; Mild; n (M2 1.8 mg (N = 9)): 5
- Any TEAE; Moderate; % (M2 1.8 mg (N = 9)): (44.4%)
- Any TEAE; Moderate; n (M2 1.8 mg (N = 9)): 4
- Any TEAE; PLT; % (M2 1.8 mg (N = 9)): (0.0%)
- Any TEAE; PLT; n (M2 1.8 mg (N = 9)): 0
- Any TEAE; Severe; % (M2 1.8 mg (N = 9)): (0.0%)
- Any TEAE; Severe; n (M2 1.8 mg (N = 9)): 0
- TEAE Abdominal discomfort; Mild; % (M2 1.8 mg (N = 9)): (11.1%)
- TEAE Abdominal discomfort; Mild; n (M2 1.8 mg (N = 9)): 1
- TEAE Abdominal discomfort; Moderate; % (M2 1.8 mg (N = 9)): (0.0%)
- TEAE Abdominal discomfort; Moderate; n (M2 1.8 mg (N = 9)): 0
- TEAE Abdominal discomfort; PLT; % (M2 1.8 mg (N = 9)): (0.0%)
- TEAE Abdominal discomfort; PLT; n (M2 1.8 mg (N = 9)): 0
- TEAE Abdominal discomfort; Severe; % (M2 1.8 mg (N = 9)): (0.0%)
- TEAE Abdominal discomfort; Severe; n (M2 1.8 mg (N = 9)): 0
- TEAE Abdominal distension; Mild; % (M2 1.8 mg (N = 9)): (0.0%)
- TEAE Abdominal distension; Mild; n (M2 1.8 mg (N = 9)): 0
- TEAE Abdominal distension; Moderate; % (M2 1.8 mg (N = 9)): (0.0%)
- TEAE Abdominal distension; Moderate; n (M2 1.8 mg (N = 9)): 0
- TEAE Abdominal distension; PLT; % (M2 1.8 mg (N = 9)): (0.0%)
- TEAE Abdominal distension; PLT; n (M2 1.8 mg (N = 9)): 0
- TEAE Abdominal distension; Severe; % (M2 1.8 mg (N = 9)): (0.0%)
- TEAE Abdominal distension; Severe; n (M2 1.8 mg (N = 9)): 0
- TEAE Abdominal pain; Mild; % (M2 1.8 mg (N = 9)): (11.1%)
- TEAE Abdominal pain; Mild; n (M2 1.8 mg (N = 9)): 1
- TEAE Abdominal pain; Moderate; % (M2 1.8 mg (N = 9)): (0.0%)
- TEAE Abdominal pain; Moderate; n (M2 1.8 mg (N = 9)): 0
- TEAE Abdominal pain; PLT; % (M2 1.8 mg (N = 9)): (0.0%)
- TEAE Abdominal pain; PLT; n (M2 1.8 mg (N = 9)): 0
- TEAE Abdominal pain; Severe; % (M2 1.8 mg (N = 9)): (0.0%)
- TEAE Abdominal pain; Severe; n (M2 1.8 mg (N = 9)): 0
- TEAE Anaemia; Mild; % (M2 1.8 mg (N = 9)): (11.1%)
- TEAE Anaemia; Mild; n (M2 1.8 mg (N = 9)): 1
- TEAE Anaemia; Moderate; % (M2 1.8 mg (N = 9)): (0.0%)
- TEAE Anaemia; Moderate; n (M2 1.8 mg (N = 9)): 0
- TEAE Anaemia; PLT; % (M2 1.8 mg (N = 9)): (0.0%)
- TEAE Anaemia; PLT; n (M2 1.8 mg (N = 9)): 0
- TEAE Anaemia; Severe; % (M2 1.8 mg (N = 9)): (0.0%)
- TEAE Anaemia; Severe; n (M2 1.8 mg (N = 9)): 0
- TEAE Application site bruise; Mild; % (M2 1.8 mg (N = 9)): (0.0%)
- TEAE Application site bruise; Mild; n (M2 1.8 mg (N = 9)): 0
- TEAE Application site bruise; Moderate; % (M2 1.8 mg (N = 9)): (0.0%)
- TEAE Application site bruise; Moderate; n (M2 1.8 mg (N = 9)): 0
- TEAE Application site bruise; PLT; % (M2 1.8 mg (N = 9)): (0.0%)
- TEAE Application site bruise; PLT; n (M2 1.8 mg (N = 9)): 0
- TEAE Application site bruise; Severe; % (M2 1.8 mg (N = 9)): (0.0%)
- TEAE Application site bruise; Severe; n (M2 1.8 mg (N = 9)): 0
- TEAE Application site erythema; Mild; % (M2 1.8 mg (N = 9)): (11.1%)
- TEAE Application site erythema; Mild; n (M2 1.8 mg (N = 9)): 1
- TEAE Application site erythema; Moderate; % (M2 1.8 mg (N = 9)): (0.0%)
- TEAE Application site erythema; Moderate; n (M2 1.8 mg (N = 9)): 0
- TEAE Application site erythema; PLT; % (M2 1.8 mg (N = 9)): (0.0%)
- TEAE Application site erythema; PLT; n (M2 1.8 mg (N = 9)): 0
- TEAE Application site erythema; Severe; % (M2 1.8 mg (N = 9)): (0.0%)
- TEAE Application site erythema; Severe; n (M2 1.8 mg (N = 9)): 0
- TEAE Blood and lymphatic system disorders; Mild; % (M2 1.8 mg (N = 9)): (11.1%)
- TEAE Blood and lymphatic system disorders; Mild; n (M2 1.8 mg (N = 9)): 1
- TEAE Blood and lymphatic system disorders; Moderate; % (M2 1.8 mg (N = 9)): (0.0%)
- TEAE Blood and lymphatic system disorders; Moderate; n (M2 1.8 mg (N = 9)): 0
- TEAE Blood and lymphatic system disorders; PLT; % (M2 1.8 mg (N = 9)): (0.0%)
- TEAE Blood and lymphatic system disorders; PLT; n (M2 1.8 mg (N = 9)): 0
- TEAE Blood and lymphatic system disorders; Severe; % (M2 1.8 mg (N = 9)): (0.0%)
- TEAE Blood and lymphatic system disorders; Severe; n (M2 1.8 mg (N = 9)): 0
- TEAE Cardiac disorders; Mild; % (M2 1.8 mg (N = 9)): (0.0%)
- TEAE Cardiac disorders; Mild; n (M2 1.8 mg (N = 9)): 0
- TEAE Cardiac disorders; Moderate; % (M2 1.8 mg (N = 9)): (0.0%)
- TEAE Cardiac disorders; Moderate; n (M2 1.8 mg (N = 9)): 0
- TEAE Cardiac disorders; PLT; % (M2 1.8 mg (N = 9)): (0.0%)
- TEAE Cardiac disorders; PLT; n (M2 1.8 mg (N = 9)): 0
- TEAE Cardiac disorders; Severe; % (M2 1.8 mg (N = 9)): (0.0%)
- TEAE Cardiac disorders; Severe; n (M2 1.8 mg (N = 9)): 0
- TEAE Constipation; Mild; % (M2 1.8 mg (N = 9)): (11.1%)
- TEAE Constipation; Mild; n (M2 1.8 mg (N = 9)): 1
- TEAE Constipation; Moderate; % (M2 1.8 mg (N = 9)): (11.1%)
- TEAE Constipation; Moderate; n (M2 1.8 mg (N = 9)): 1
- TEAE Constipation; Potentially PLT; % (M2 1.8 mg (N = 9)): (0.0%)
- TEAE Constipation; Potentially PLT; n (M2 1.8 mg (N = 9)): 0
- TEAE Constipation; Severe; % (M2 1.8 mg (N = 9)): (0.0%)
- TEAE Constipation; Severe; n (M2 1.8 mg (N = 9)): 0
- TEAE Diarrhoea; Mild; % (M2 1.8 mg (N = 9)): (0.0%)
- TEAE Diarrhoea; Mild; n (M2 1.8 mg (N = 9)): 0
